In ChEMBL document CHEMBL5726183, “Geminal substituted quinuclidine amide compounds as agonists of α-7 nicotonic acetylcholine receptors” (2019):
“And” between values parts separate entries of the source, which are not always exact repeats. Identical values can stand only once.

Sequences of proteins named here, by UniProt entry; tags and fusion partners are left off. Residues count along the entry.
UniProt P36544, 23-502 limits assumed: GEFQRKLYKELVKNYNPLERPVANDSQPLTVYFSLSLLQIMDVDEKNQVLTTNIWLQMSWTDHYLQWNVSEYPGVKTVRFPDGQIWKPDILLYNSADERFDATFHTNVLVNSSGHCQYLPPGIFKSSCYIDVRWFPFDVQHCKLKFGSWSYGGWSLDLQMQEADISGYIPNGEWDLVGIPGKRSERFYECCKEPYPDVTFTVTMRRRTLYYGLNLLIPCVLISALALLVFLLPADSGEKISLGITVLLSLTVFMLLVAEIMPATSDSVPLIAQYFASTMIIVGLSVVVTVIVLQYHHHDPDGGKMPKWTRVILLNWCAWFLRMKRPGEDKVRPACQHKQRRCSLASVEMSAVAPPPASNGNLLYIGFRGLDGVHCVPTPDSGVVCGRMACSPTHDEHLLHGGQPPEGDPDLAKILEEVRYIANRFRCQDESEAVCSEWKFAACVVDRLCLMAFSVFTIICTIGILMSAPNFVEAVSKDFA

Each compound was assayed against Neuronal acetylcholine receptor subunit alpha-7 (Homo sapiens, UniProt P36544).

Going from `CC1(C)[C@H](NC(=O)c2cc3cccc(-c4nccs4)c3s2)C2CCN1CC2` to `O=C(N[C@@H]1C2CCN(CC2)C12CC2)c1cc2cccc(-c3nccs3)c2s1`, the Ki falls from 0.32 µM to 0.147 µM (2.2-fold).

Compared with `O=C(N[C@@H]1C2CCN(CC2)C12CC2)c1ccc(Cl)c(Cl)c1`, `O=C(N[C@@H]1C2CCN(CC2)C12CC2)c1ccc2oc(Cl)cc2c1` is 6.1-fold lower in Ki: 2 µM for the first, 0.33 µM for the second.

`CC1(C)[C@H](NC(=O)c2cc3ccoc3cn2)C2CCN1CC2` and `CC1(C)[C@H](NC(=O)c2cc3ccsc3cn2)C2CCN1CC2` are within 1.5-fold of each other in Ki: 0.39 µM for the first, 0.48 µM for the second.

Compared with `O=C(N[C@H]1C2CCN(CC2)C12CC2)c1n[nH]c2ccccc12`, `CC1(C)[C@@H](NC(=O)c2n[nH]c3ccccc23)C2CCN1CC2` is 1.8-fold lower in Ki: 14 µM for the first, 7.9 µM for the second. The second binds more tightly here.

First: Cc1ccc2cc(C(=O)N[C@@H]3C4CCN(CC4)C34CC4)sc2c1Cl
Second: Cc1c(Cl)ccc2cc(C(=O)N[C@@H]3C4CCN(CC4)C34CC4)sc12
The Ki of the first is 3.4-fold higher: 0.16 µM for the first, 0.047 µM for the second.

Compared with `COc1ccc2cc(C(=O)N[C@@H]3C4CCN(CC4)C3(C)C)sc2c1`, `CCOc1ccc2cc(C(=O)N[C@@H]3C4CCN(CC4)C3(C)C)sc2c1` is 4.2-fold higher in Ki: 0.33 µM for the first, 1.4 µM for the second.

`O=C(N[C@@H]1C2CCN(CC2)C12CC2)c1cc2cccc(OC(F)(F)F)c2s1` and `CCOc1cccc2cc(C(=O)N[C@@H]3C4CCN(CC4)C34CC4)sc12` are within 1.5-fold of each other in Ki: 0.28 µM for the first, 0.2 µM for the second.

First: CC1(C)[C@H](NC(=O)c2cc3cccc(C4CCOCC4)c3s2)C2CCN1CC2
Second: CC1(C)[C@H](NC(=O)c2cc3cccc(C4CC4)c3s2)C2CCN1CC2
The Ki of the first is 7.9-fold higher: 1.1 µM for the first, 0.14 µM for the second.

`CC1(C)[C@H](NC(=O)c2cc3ccc(C4CC4)cc3s2)C2CCN1CC2` and `CC1(C)[C@H](NC(=O)c2cc3ccc(Br)cc3s2)C2CCN1CC2` are within 1.5-fold of each other in Ki: 0.355 µM for the first, 0.46 µM for the second.

Compared with `CC1(C)[C@H](NC(=O)c2cc3ccc(F)c(Cl)c3s2)C2CCN1CC2`, `CC1(C)[C@H](NC(=O)c2cc3ccc(Cl)c(Cl)c3s2)C2CCN1CC2` is 3.8-fold lower in Ki: 0.42 µM for the first, 0.11 µM for the second.

Going from `CC1(c2cccc3cc(C(=O)N[C@@H]4C5CCN(CC5)C45CC5)sc23)CC1` to `O=C(N[C@@H]1C2CCN(CC2)C12CC2)c1cc2cccc(C3(C(F)(F)F)CC3)c2s1`, the Ki rises from 0.54 µM to 2.5 µM (4.6-fold).

Going from `CC1(C)[C@H](NC(=O)c2cc3ccc(C(F)(F)F)cc3s2)C2CCN1CC2` to `Cc1ccc2cc(C(=O)N[C@H]3C4CCN(CC4)C3(C)C)sc2c1`, the Ki falls from 23 µM to 14 µM (1.6-fold).

First: CC1(C)[C@H](NC(=O)c2nc3ccccc3s2)C2CCN1CC2
Second: O=C(N[C@@H]1C2CCN(CC2)C12CC2)c1nc2ccccc2s1
The Ki of the first is 2.7-fold higher: 3 µM for the first, 1.1 µM for the second. The second binds more tightly here.

First: Cn1c(C(=O)N[C@@H]2C3CCN(CC3)C23CC3)nc2ccccc21
Second: O=C(N[C@@H]1C2CCN(CC2)C12CC2)c1nc2ccccc2[nH]1
The Ki of the first is 2.3-fold higher: 20 µM for the first, 8.7 µM for the second. The second binds more tightly here.

Compared with `CC1(C)[C@H](NC(=O)c2cc3cc(F)c(F)cc3s2)C2CCN1CC2`, `O=C(N[C@@H]1C2CCN(CC2)C12CC2)c1cc2cc(F)c(F)cc2s1` is 2.5-fold lower in Ki: 2.7 µM for the first, 1.1 µM for the second.

Going from `COCc1cccc2cc(C(=O)N[C@@H]3C4CCN(CC4)C34CC4)sc12` to `N#Cc1cccc2cc(C(=O)N[C@@H]3C4CCN(CC4)C34CC4)sc12`, the Ki falls from 0.42 µM to 0.11 µM (3.8-fold).

Compared with `O=C(N[C@@H]1C2CCN(CC2)C12CC2)c1cc2c(s1)CCCC2`, `O=C(N[C@@H]1C2CCN(CC2)C12CC2)c1cc2ccncc2s1` is 13-fold lower in Ki: 12 µM for the first, 0.9 µM for the second.

Compared with `Cc1nc2ccc(C(=O)N[C@@H]3C4CCN(CC4)C3(C)C)cc2s1`, `Cc1cc2ccc(C(=O)N[C@@H]3C4CCN(CC4)C3(C)C)cc2s1` is 13-fold lower in Ki: 7.5 µM for the first, 0.57 µM for the second.

First: CC1(C)[C@H](NC(=O)c2ccc3oc(C4CC4)cc3c2)C2CCN1CC2
Second: Cc1cc2cc(C(=O)N[C@@H]3C4CCN(CC4)C3(C)C)ccc2o1
The Ki of the first is 1.7-fold higher: 2.2 µM for the first, 1.3 µM for the second.

`CC1(C)[C@H](NC(=O)c2cc3ccc(Cl)c(C(F)(F)F)c3s2)C2CCN1CC2` and `CC1(C)[C@H](NC(=O)c2cc3ccc(Cl)c(F)c3s2)C2CCN1CC2` are within 1.5-fold of each other in Ki: 0.5 µM for the first, 0.34 µM for the second.

Going from `CC1(C)[C@H](NC(=O)c2cc3cc(Cl)ccc3s2)C2CCN1CC2` to `CC1(C)[C@H](NC(=O)c2cc3ccc(Cl)cc3s2)C2CCN1CC2`, the Ki falls from 3 µM to 0.495 µM (6.1-fold). The second binds more tightly here.

First: CC1(C)[C@H](NC(=O)c2cc3cccnc3s2)C2CCN1CC2
Second: CC1(C)[C@@H](NC(=O)c2cc3cc(F)ccc3s2)C2CCN1CC2
The Ki of the first is 2.2-fold lower: 5 µM for the first, 11 µM for the second. The first binds more tightly here.

Compared with `CC1(C)[C@H](NC(=O)c2cc3ccc(C4CC4)c(Cl)c3s2)C2CCN1CC2`, `Cc1ccc2cc(C(=O)N[C@@H]3C4CCN(CC4)C3(C)C)sc2c1C1CC1` is 6.6-fold lower in Ki: 2.5 µM for the first, 0.38 µM for the second.

`Cn1ccc2ccc(C(=O)N[C@@H]3C4CCN(CC4)C3(C)C)cc21` and `Cn1ccc2ccc(C(=O)N[C@@H]3C4CCN(CC4)C34CC4)cc21` are within 1.5-fold of each other in Ki: 2 µM for the first, 1.5 µM for the second.

Compared with `COc1c(F)ccc2cc(C(=O)N[C@@H]3C4CCN(CC4)C34CC4)sc12`, `O=C(N[C@@H]1C2CCN(CC2)C12CC2)c1cc2ccc(F)c(F)c2s1` is 4.9-fold higher in Ki: 0.16 µM for the first, 0.79 µM for the second. The first binds more tightly here.

Compared with `Cc1ccc2cc(C(=O)N[C@@H]3C4CCN(CC4)C3(C)C)sc2c1C#N`, `Cc1ccc2cc(C(=O)N[C@@H]3C4CCN(CC4)C3(C)C)sc2c1F` is 1.7-fold lower in Ki: 0.64 µM for the first, 0.38 µM for the second.

Going from `CC1(C)[C@H](NC(=O)c2ccc3ccoc3c2)C2CCN1CC2` to `CC1(C)[C@H](NC(=O)c2ccc3sccc3c2)C2CCN1CC2`, the Ki falls from 3.1 µM to 0.94 µM (3.3-fold).

Compared with `CC1(C)[C@H](NC(=O)c2cc3cccc(C(F)(F)F)c3s2)C2CCN1CC2`, `CC1(C)[C@@H](NC(=O)c2cc3cccc(C(F)(F)F)c3s2)C2CCN1CC2` is 47-fold higher in Ki: 0.3 µM for the first, 14 µM for the second.

First: Cc1c(Cl)ccc2cc(C(=O)N[C@@H]3C4CCN(CC4)C3(C)C)sc12
Second: Cc1ccc2cc(C(=O)N[C@@H]3C4CCN(CC4)C3(C)C)sc2c1Cl
The Ki of the first is 2-fold lower: 0.092 µM for the first, 0.18 µM for the second. The first binds more tightly here.

Compared with `CS(=O)(=O)c1cccc2cc(C(=O)N[C@@H]3C4CCN(CC4)C34CC4)sc12`, `CC(C)Oc1cccc2cc(C(=O)N[C@@H]3C4CCN(CC4)C34CC4)sc12` is 10-fold lower in Ki: 2.3 µM for the first, 0.22 µM for the second. The second binds more tightly here.

`Cc1csc2cc(C(=O)N[C@@H]3C4CCN(CC4)C3(C)C)ccc12` and `Cc1nc2cc(C(=O)N[C@@H]3C4CCN(CC4)C3(C)C)ccc2o1` are within 1.5-fold of each other in Ki: 9.8 µM for the first, 11 µM for the second.

`O=C(N[C@@H]1C2CCN(CC2)C12CC2)c1cc2cccc(-c3ccccc3)c2s1` and `CC1(C)[C@H](NC(=O)c2cc3cccc(-c4ccccc4)c3s2)C2CCN1CC2` are within 1.5-fold of each other in Ki: 0.31 µM for the first, 0.25 µM for the second.

`CC1(C)[C@H](NC(=O)c2cc3cc(Cl)c(Cl)cc3s2)C2CCN1CC2` and `CC1(C)[C@H](NC(=O)c2cc3ccc(C#N)cc3s2)C2CCN1CC2` are within 1.5-fold of each other in Ki: 25 µM for the first, 17 µM for the second.

`CC1(C)[C@H](NC(=O)c2cc3cccc(C#N)c3s2)C2CCN1CC2` and `CC(C)Oc1cccc2cc(C(=O)N[C@@H]3C4CCN(CC4)C3(C)C)sc12` are within 1.5-fold of each other in Ki: 0.55 µM for the first, 0.45 µM for the second.

Going from `CC(C)Oc1ccc2cc(C(=O)N[C@@H]3C4CCN(CC4)C3(C)C)sc2c1` to `CCOc1ccc2cc(C(=O)N[C@@H]3C4CCN(CC4)C34CC4)sc2c1`, the Ki falls from 14 µM to 1.2 µM (12-fold). The second binds more tightly here.

Going from `O=C(N[C@@H]1C2CCN(CC2)C12CC2)c1cc2cccc(C3CCOCC3)c2s1` to `O=C(N[C@@H]1C2CCN(CC2)C12CC2)c1cc2ccc(C3COC3)cc2s1`, the Ki rises from 1.2 µM to 11 µM (9.2-fold). The first binds more tightly here.

`CC1(C)[C@H](NC(=O)c2cc3cnc(N)nc3s2)C2CCN1CC2` and `COc1ccc2cc(C(=O)N[C@@H]3C4CCN(CC4)C3(C)C)sc2c1F` are within 1.5-fold of each other in Ki: 1.6 µM for the first, 1.7 µM for the second.

Compared with `CC1(C)[C@H](NC(=O)c2cc3cccc(N4CCOCC4)c3s2)C2CCN1CC2`, `CC1(C)[C@H](NC(=O)c2ccc3occ(Cl)c3c2)C2CCN1CC2` is 5.5-fold lower in Ki: 3.5 µM for the first, 0.64 µM for the second. The second binds more tightly here.

Compared with `O=C(N[C@@H]1C2CCN(CC2)C12CC2)c1cc2ccc(N3CCC(F)(F)CC3)cc2s1`, `Cc1ccc2cc(C(=O)N[C@@H]3C4CCN(CC4)C34CC4)sc2c1F` is 140-fold lower in Ki: 21 µM for the first, 0.15 µM for the second.

First: CC1(C)[C@H](NC(=O)c2cc3ccccc3[nH]2)C2CCN1CC2
Second: CC1(C)C(NC(=O)c2ccc(Cl)cc2)C2CCN1CC2 (stereo not given)
The Ki of the first is 3.5-fold lower: 1.1 µM for the first, 3.9 µM for the second.

First: O=C(N[C@@H]1C2CCN(CC2)C12CC2)c1cc2ccsc2cn1
Second: O=C(N[C@@H]1C2CCN(CC2)C12CC2)c1cc2ccc(Cl)cc2o1
The Ki of the first is 2.1-fold lower: 0.4 µM for the first, 0.86 µM for the second.

First: CC1(C)[C@H](NC(=O)c2cc3c(cn2)OCCO3)C2CCN1CC2
Second: O=C(N[C@@H]1C2CCN(CC2)C12CC2)c1ccc2c(c1)OCCO2
The Ki of the first is 3.2-fold higher: 9.6 µM for the first, 3 µM for the second.

With `O=C(NC1C2CCN(CC2)C12CC2)c1cc2cc(C(F)(F)F)ccc2s1` (single isomer, unassigned) the Ki was 16 µM and > 30 µM.
